Article PMC7173943

How the values were obtained:
[1] = target: HA-CXCR4(D20R)-Rluc3 (UniProt P61073)
[2] = target: HA-CXCR4(E26R)-Rluc3 (UniProt P61073)
[3] = target: HA-CXCR4-Rluc3 (WT) (UniProt P61073)

With “human CXCL12α (residues 22–89), recombinant (from UniProt P48061-2 22-89) (ligand)” the β-arrestin-2 recruitment to HA-CXCR4-Rluc3 (BRET2, HEK293T cells), pEC50 [1] was 6.79 -log10(EC50), the β-arrestin-2 recruitment to HA-CXCR4-Rluc3 (BRET2, HEK293T cells), pEC50 [2] was 6.68 -log10(EC50) and the β-arrestin-2 recruitment to HA-CXCR4-Rluc3 (BRET2, HEK293T cells), pEC50 [3] was 7.4 -log10(EC50).
